For one molecule, Ratio EC50 results are on record in ChEMBL document CHEMBL3352346, “Optimization of sphingosine-1-phosphate-1 receptor agonists: effects of acidic, basic, and zwitterionic chemotypes on pharmacokinetic and pharmacodynamic profiles” (J Med Chem, 2014).

For the experiment, the species on record is Homo sapiens. Description: Selectivity ratio of EC50 for human S1P3R to EC50 for human S1P1R.

With `CC(C)Oc1ccc(-c2nc(-c3ccc4c(c3)CCN(CCCC(=O)O)CC4)no2)cc1C#N`, the Ratio EC50 turned out to be 1000.
